# This is a selection; strong and weak results do not stand in their true shares. Active and inactive are the calls of the source.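 How the source made its calls: active means highest replicate inhibition at or above 60% at 9 µM, even if other replicates fall short; inactive means all replicates below 60% inhibition.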
# Test system: Kaposi's sarcoma herpesvirus LANA C-terminal domain (residues 932-1162) DNA binding
# Test: blockers of LANA C-terminal domain DNA interaction – biochemical, fluorescence polarization, FAM-LBS DNA, MBP-C-LANA, single point, primary screen (AID 504423);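 further: 0% = neutral control wells and 100% = 4 µM acridine orange control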
# Details: at 9 µM, active compounds read high
row,Structure (SMILES),inhibition
1,CCC(=O)N(c1ccccc1)C1(COC)CCN(CCn2nnn(CC)c2=O)CC1,inactive: -1.8%
2,CCC(=O)N(c1ccccc1)C1(COC)CCN(CCc2cccs2)CC1,inactive: -1.04%
